Measured values taken from publication PMC7904868.

Chains of the proteins cited; added tags and fusions are not shown. Chains listed by the source or under a name are the forms on record and can include a tag or linker. Residues count along the entry.
UniProt P12314, 16-292: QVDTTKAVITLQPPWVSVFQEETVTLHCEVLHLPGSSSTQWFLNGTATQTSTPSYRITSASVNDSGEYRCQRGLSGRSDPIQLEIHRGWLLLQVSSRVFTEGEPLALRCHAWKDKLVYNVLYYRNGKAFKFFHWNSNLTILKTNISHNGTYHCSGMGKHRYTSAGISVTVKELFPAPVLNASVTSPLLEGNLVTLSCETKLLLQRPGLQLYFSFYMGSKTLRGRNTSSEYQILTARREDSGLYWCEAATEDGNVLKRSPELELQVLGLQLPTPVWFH
Deglycosylated (DG) siplizumab (human (humanized antibody)), heavy, as listed by the source, chain 1 of 2: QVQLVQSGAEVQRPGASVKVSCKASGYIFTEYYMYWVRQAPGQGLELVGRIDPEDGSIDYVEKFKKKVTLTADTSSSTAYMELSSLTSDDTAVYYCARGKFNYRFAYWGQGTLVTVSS
Deglycosylated (DG) siplizumab (human (humanized antibody)), light, as listed by the source, chain 2 of 2: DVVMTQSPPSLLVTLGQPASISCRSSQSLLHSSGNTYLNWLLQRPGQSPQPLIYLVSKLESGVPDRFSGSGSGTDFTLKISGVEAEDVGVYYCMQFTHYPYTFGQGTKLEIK

Assays:
Assay in all cases: SPR; Biacore T200, 25°C; IgG captured on amine-coupled recombinant truncated human CD2 (CM5 chip); Fcγ receptors injected for 120 s in concentration series up to 0.5 μM; 10 mM HEPES pH 7.4, 150 mM NaCl, 0.5 mM EDTA, 0.05% Tween20; 1:1 or heterogeneous binding model, or steady state analysis for weaker interactions
[1] = target: Deglycosylated (DG) siplizumab (human (humanized antibody))
[2] = target: Fc-silent siplizumab (FcS anti-CD2 IgG1) (human (humanized antibody))
[3] = target: FcS anti-CD2 IgG2 (not stated | human (humanized antibody))
[4] = target: FcS anti-CD2 IgG4 (not stated | human (humanized antibody))

“Fc gamma receptor I (FcγRI) (from UniProt P12314 16-292)” was tested, and the Kd [1] was 1.13 nM, the Kd [2] was > 2000 nM and the Kd [3] was > 2000 nM. For the same substance, the Kd [4] was > 2000 nM.
